Target: C7LBDBS with a G521R mutation (Homo sapiens, UniProt P03372, G521R)
Details: 100 nM; Hep3BL liver cells

Chains of the proteins cited; added tags and fusions are not shown. Residues count along the entry.
UniProt P03372, 258-554 G521R: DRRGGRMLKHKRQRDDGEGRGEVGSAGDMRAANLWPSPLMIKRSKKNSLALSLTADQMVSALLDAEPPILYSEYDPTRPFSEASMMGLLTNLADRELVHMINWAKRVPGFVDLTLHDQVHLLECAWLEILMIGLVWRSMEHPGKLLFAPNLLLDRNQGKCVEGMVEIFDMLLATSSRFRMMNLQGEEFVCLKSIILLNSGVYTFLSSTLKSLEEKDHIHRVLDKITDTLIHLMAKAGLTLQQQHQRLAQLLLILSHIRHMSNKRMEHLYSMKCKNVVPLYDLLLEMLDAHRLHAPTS

Compound: O=C(c1ccc(OCN2CCCCC2)cc1)c1c(-c2ccc(O)cc2)sc2cc(O)ccc12 [raloxifen]
- ability to induce the regulator: fully active
